Measurements as given in patent US9663513B2, “Pyrimidine PDE10 inhibitors” (Merck Sharp & Dohme Corp., priority 2012, dated 2017).

Chains of the proteins cited; added tags and fusions are not shown. Residues count along the entry.
UniProt Q9Y233, 267-1055: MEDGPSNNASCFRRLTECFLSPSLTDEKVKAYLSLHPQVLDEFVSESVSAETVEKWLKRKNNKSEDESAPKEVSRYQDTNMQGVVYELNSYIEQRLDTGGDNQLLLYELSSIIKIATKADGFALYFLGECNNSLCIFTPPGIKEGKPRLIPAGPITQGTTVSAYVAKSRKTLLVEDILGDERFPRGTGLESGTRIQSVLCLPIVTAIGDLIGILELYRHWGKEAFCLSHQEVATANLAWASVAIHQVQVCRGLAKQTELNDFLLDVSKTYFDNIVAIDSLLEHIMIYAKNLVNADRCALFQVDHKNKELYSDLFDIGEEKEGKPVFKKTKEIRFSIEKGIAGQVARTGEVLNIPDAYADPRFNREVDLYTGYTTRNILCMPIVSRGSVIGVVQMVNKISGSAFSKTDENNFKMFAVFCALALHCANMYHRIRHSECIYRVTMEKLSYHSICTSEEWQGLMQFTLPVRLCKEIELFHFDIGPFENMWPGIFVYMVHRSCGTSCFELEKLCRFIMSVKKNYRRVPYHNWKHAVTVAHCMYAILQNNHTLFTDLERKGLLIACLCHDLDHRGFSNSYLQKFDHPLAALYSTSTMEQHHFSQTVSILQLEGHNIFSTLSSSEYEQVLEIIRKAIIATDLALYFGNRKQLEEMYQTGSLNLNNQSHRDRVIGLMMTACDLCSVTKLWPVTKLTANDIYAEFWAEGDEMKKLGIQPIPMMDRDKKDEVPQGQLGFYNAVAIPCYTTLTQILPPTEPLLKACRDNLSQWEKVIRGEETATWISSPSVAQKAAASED

Biological target: human PDE10A2 (Homo sapiens (Human), UniProt Q9Y233)
Assay: PDE10 fluorescence polarization (IMAP FP) inhibition assay
Assay type: biochemical
Details: human PDE10A2 from transfected AD293 cells; FAM-labeled cAMP 50 nM; apparent inhibition constant; read-out: PDE10A Ki
Method: The activity of the compounds in accordance with the present invention as PDE10 inhibitors may be readily determined without undue experimentation using a fluorescence polarization (FP) methodology that is well known in the art (Huang, W., et al., J. Biomol Screen, 2002, 7: 215).
In a typical experiment the PDE10 inhibitory activity of the compounds of the present invention was determined in accordance with the following experimental method. PDE10A2 was amplified from human fetal brain cDNA (Clontech, Mountain View, Calif.) using a forward primer corresponding to nucleotides 56-77 of human PDE10A2 (Accession No. AF127480, Genbank Identifier 4894716), containing a Kozak consensus sequence, and a reverse primer corresponding to nucleotides 2406-2413 of human PDE10A2 (Accession No. AF127480, Genbank Identifier 4894716). Amplification with Easy-A polymerase (Stratagene, La Jolla, Calif.) was 95° C. for 2 minutes followed by thirty three cycles of 95° C. for 40 seconds, 55° C. for 30 seconds, and 72° C. for 2 minutes 48 seconds. Final extension was 72° C. for 7 minutes. The PCR product was TA cloned into pcDNA3.2-TOPO (Invitrogen, Carlsbad, Calif.) according to standard protocol. AD293 cells with 70-80% confluency were transiently transfected with human PDE10A2/pcDNA3.2-TOPO using Lipofectamine 2000 according to manufacturer specifications (Invitrogen, Carlsbad, Calif.). Cells were harvested 48 hours post-transfection and lysed by sonication (setting 3, 10×5 sec pulses) in a buffer containing 20 mM HEPES, 1 mM EDTA and protease inhibitor cocktail (Roche). Lysate was collected by centrifugation at 75,000×g for 20 minutes. Supernatant containing the cytoplasmic fraction was used for evaluation of PDE10A2 activity. The fluorescence polarization assay for cyclic nucleotide phosphodiesterases was performed using an IMAP® FP kit supplied by Molecular Devices, Sunnyvale, Calif. (product # R8139). IMAP® technology has been applied previously to phosphodiesterase assays (Huang, W., et al., J. Biomol Screen, 2002, 7: 215). Assays were performed at room temperature in 384-well microtiter plates with an incubation volume of 20.2 μL. Solutions of test compounds were prepared in DMSO and serially diluted with DMSO to yield 8 μL of each of 10 solutions differing by 3-fold in concentration, at 32 serial dilutions per plate. 100% inhibition is determined using a known PDE10 inhibitor, which can be any compound that is present at 5,000 times its Ki value in the assay described as follows, such as papaverine (see Siuciak, et al. Neuropharmacology (2006) 51:386-396; Becker, et al. Behav Brain Res (2008) 186(2):155-60; Threlfell, et al., J Pharmacol Exp Ther (2009) 328(3):785-795), 2-{4-[pyridin-4-yl-1-(2,2,2-trifluoroethyl)-1H-pyrazol-3-yl]phenoxymethyl}quinoline succinic acid or 2-[4-(1-methyl-4-pyridin-4-yl-1H-pyrazol-3-yl)-phenoxymethyl]quinoline succinic acid (see Schmidt, et al. J Pharmacol Exp Ther (2008) 325:681-690; Threlfell, et al., J Pharmacol Exp Ther (2009) 328(3): 785-795). 0% of inhibition is determined by using DMSO (1% final concentrations).
A Labcyte Echo 555 (Labcyte, Sunnyvale, Calif.) is used to dispense 200 nL from each well of the titration plate to the 384 well assay plate. A solution of enzyme (1/1600 dilution from aliquots; sufficient to produce 20% substrate conversion) and a separate solution of FAM-labeled cAMP PDE from Molecular Devices (product # R7506), at a final concentration of 50 nM are made in the assay buffer (10 mM Tris HCl, pH 7.2, 10 mM MgCl2, 0.05% NaN3 0.01% Tween-20, and 1 mM DTT). The enzyme and the substrate are then added to the assay plates in two consecutive additions of 10 μL, and then shaken to mix. The reaction is allowed to proceed at room temperature for 30 minutes. A binding solution is then made from the kit components, comprised of 80% Solution A, 20% Solution B and binding reagent at a volume of 1/600 the total binding solution.

Ki [pM]	SMILES
10	Cc1ncc(-c2ccc(C(=O)O)cc2)c(OC[C@H]2C[C@@H]2c2ccc3ccccc3n2)n1 (single isomer, unassigned) [Example 22]
1210	Cc1ncc(-c2ccc(C(=O)O)cc2)c(OC[C@H]2C[C@@H]2c2ccc3ccccc3n2)n1 (single isomer, unassigned) [Example 23]
350	Cc1ccc(-c2cnc(C)nc2OC[C@H]2C[C@@H]2c2ccc3ccccc3n2)cc1 (single isomer, unassigned) [Example 24]
7230	Cc1ccc(-c2cnc(C)nc2OC[C@H]2C[C@@H]2c2ccc3ccccc3n2)cc1 (single isomer, unassigned) [Example 25]
60	Cc1ncc(-c2ccc(C#N)cc2)c(OC[C@H]2C[C@@H]2c2ccc3ccccc3n2)n1 (single isomer, unassigned) [Example 32]
1250	Cc1ncc(-c2ccc(C#N)cc2)c(OC[C@H]2C[C@@H]2c2ccc3ccccc3n2)n1 (single isomer, unassigned) [Example 33]
90	Cc1cccc(-c2cnc(C)nc2OC[C@H]2C[C@@H]2c2ccc3ccccc3n2)c1 (single isomer, unassigned) [Example 36]
7240	Cc1cccc(-c2cnc(C)nc2OC[C@H]2C[C@@H]2c2ccc3ccccc3n2)c1 (single isomer, unassigned) [Example 37]
80	Cc1ncc(-c2cncnc2)c(OC[C@H]2C[C@@H]2c2ccc3ccccc3n2)n1 (single isomer, unassigned) [Example 43]
2200	Cc1ncc(-c2cncnc2)c(OC[C@H]2C[C@@H]2c2ccc3ccccc3n2)n1 (single isomer, unassigned) [Example 44]
100	COc1ccc([C@H]2C[C@@H]2COc2nc(C)ncc2-c2ccc(C(O)C(F)F)nc2)nc1 (single isomer, unassigned) [Example 67]
430	COc1ccc([C@H]2C[C@@H]2COc2nc(C)ncc2-c2ccc(C(O)C(F)F)nc2)nc1 (single isomer, unassigned) [Example 68]
150	COc1ccc([C@H]2C[C@@H]2COc2nc(C)ncc2-c2ccc(C(O)C(F)(F)F)nc2)nc1 (single isomer, unassigned) [Example 83]
510	COc1ccc([C@H]2C[C@@H]2COc2nc(C)ncc2-c2ccc(C(O)C(F)(F)F)nc2)nc1 (single isomer, unassigned) [Example 84]
40	Cc1ncc(-c2cn(C)nc2C(C)O)c(OC[C@@H]2C[C@H]2c2ccc3c(n2)CCC3)n1 (single isomer, unassigned) [Example 164]
50	Cc1ncc(-c2cn(C)nc2C(C)O)c(OC[C@@H]2C[C@H]2c2ccc3c(n2)CCC3)n1 (single isomer, unassigned) [Example 165]
8110	Cc1ncc(-c2cn(C)nc2C(C)O)c(OC[C@@H]2C[C@H]2c2ccc3c(n2)CCC3)n1 (single isomer, unassigned) [Example 166]
5440	Cc1ncc(-c2cn(C)nc2C(C)O)c(OC[C@@H]2C[C@H]2c2ccc3c(n2)CCC3)n1 (single isomer, unassigned) [Example 167]
1560	Cc1ncc(-c2cn(C)nc2C(C)O)c(OC[C@H]2C[C@@H]2c2ccccn2)n1 (single isomer, unassigned) [Example 168]
1410	Cc1ncc(-c2cn(C)nc2C(C)O)c(OC[C@H]2C[C@@H]2c2ccccn2)n1 (single isomer, unassigned) [Example 169]
500	COc1ccc([C@H]2C[C@@H]2COc2nc(C)ncc2[C@H]2CC[C@@H](C(N)=O)CC2)nc1 [Example 218, cis-4-(4-(((1S,2S)-2-(5-Methoxypyridin-2-yl)cyclopropyl)methoxy)-2-methylpyrimidin-5-yl)cyclohexanecarboxamide]
650	COc1ccc([C@H]2C[C@@H]2COc2nc(C)ncc2[C@H]2CC[C@H](C(N)=O)CC2)nc1 [Example 219, trans-4-(4-(((1S,2S)-2-(5-Methoxypyridin-2-yl)cyclopropyl)methoxy)-2-methylpyrimidin-5-yl)cyclohexanecarboxamide]
640	COc1ccc([C@H]2C[C@@H]2COc2nc(C)ncc2[C@H]2CC[C@H](C(C)(C)O)CC2)nc1 [Example 220, (trans) 2-(4-(4-(((1S,2S)-2-(5-methoxypyridin-2-yl)cyclopropyl)methoxy)-2-methylpyrimidin-5-yl)cyclohexyl)propan-2-ol]
